## AlphaSeq binding of Ab-95 light chain variants to a spike HR2 peptide

Target: peptide PDVDLGDISGINAS, taken from heptad repeat 2 (HR2) of SARS-CoV-2 spike.

Each scFv is VH, the linker GGGGSGGGGSGGGGS, VL, as in the parent Ab-95, and differs from it in the CDRs of the light chain only.
VH: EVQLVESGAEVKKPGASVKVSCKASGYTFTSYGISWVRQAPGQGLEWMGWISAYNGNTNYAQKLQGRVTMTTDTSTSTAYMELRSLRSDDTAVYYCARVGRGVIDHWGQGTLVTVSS
VL: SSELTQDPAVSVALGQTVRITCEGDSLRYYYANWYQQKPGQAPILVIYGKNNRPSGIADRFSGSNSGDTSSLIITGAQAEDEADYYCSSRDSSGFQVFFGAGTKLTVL

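AAYL52 was designed without a model: most single CDR substitutions and a random sample of double and triple ones. The assay is AlphaSeq: two haploid yeast populations carry antibody and antigen on their surface. The frequency of each diploid, read from paired DNA barcodes, reflects how well the two displayed proteins bind. A regression on co-assayed BCL2-family reference pairs converts the normalised counts of each replicate to an apparent Kd. The assay was run in three technical replicates.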

The parent's light chain CDRs are EGDSLRYYYAN, GKNNRPS, SSRDSSGFQVF; each variant's own CDRs replace them letter for letter. Affinities are written as log10 Kd with Kd in nM; a lower number is a better binder. Where no diploid with the target was found in that replicate, the entry reads "nd": below detection, most likely a poor binder, though not proof of it.

Variant EGDSLRVYYAN / GKNLRPS / SSRDSSGFPVF showed 2.38, 2.76, 3.03 (controls 3 of 9).
Variant EGDSLRYYYAN / AKNNRPS / SSRVSSHFQVF showed 3.89, 4.75, 4.28 (controls 2 of 9).
Variant EGDSLRYYYAN / GDNNQPS / SSRDSSGFQVH showed 2.80, 2.62, 2.81 (controls 2 of 9).
Variant EGDSLRYYAAN / GKNNRPS / SSRDSSGLQVF showed 2.12, 1.86, 1.74 (controls 2 of 9).
Variant EGDILRYYYAN / GKNNYAS / SSRDSSGFQVF showed 4.05, 3.82, 3.68 (controls 7 of 9).
Variant EGDSLRYYYAN / DKNNRPS / CSKDSSGFQVF showed 4.50, nd, nd (controls 0 of 9).
Variant HGCSLRYYYAN / GKNNRPS / SSRASSGFQVF showed 3.52, nd, nd (controls 3 of 9).
Variant EGDSLRYRYAN / GKQNRPS / SSRESSGFQVF showed nd, nd, nd (controls 2 of 9).
Variant EGDSLRYYYAN / GKNNRDS / SSRDHYGFQVF showed 3.47, 2.69, 2.25 (controls 1 of 9).
Variant EGDSLRYAQAN / GKNNRPS / SSRDSSGFQVF showed 0.90, 0.66, 0.20 (controls 3 of 9).
Variant EGDSLRYYQAP / GKNNAPS / SSRDSSGFQVF showed 5.62, 4.81, nd (controls 4 of 9).
Variant EGDSKRYYYAN / GKNNRPS / SSRMFSGFQVF showed 4.35, 3.77, nd (controls 2 of 9).
Variant EGDSLRYYYVN / GKNNRPS / SSRDSCGFQVF showed 3.03, 2.73, 2.27 (controls 2 of 9).
Variant EGGSLRYYYAN / GKNQRPS / SSRDNSGFQVF showed 3.60, 2.32, 2.46 (controls 0 of 9).
Variant EGDSLRYCYVN / GKNNQPS / SSRDSSGFQVF showed 4.13, 5.00, nd (controls 2 of 9).
Variant EGDSMRYNYAY / GKNNRPS / SSRDSSGFQVF showed 3.30, 2.89, 2.57 (controls 5 of 9).
Variant EGLSLRYYYAN / GKNNRPS / NSRDSSMFQVF showed 2.93, 2.78, 3.10 (controls 0 of 9).
Variant EGDSLAYYYAN / GKNNRPS / SSRDSSDFQVF showed 2.23, 2.61, 3.56 (controls 3 of 9).
Variant EGDSLRYYYAN / EKNNRPM / SSRDSSGFQVF showed 3.55, 3.45, 2.72 (controls 1 of 9).
Variant EGDSLMYYYPN / GKNNRPS / SSRDASGFQVF showed 1.73, 1.92, 1.50 (controls 3 of 9).
Variant EGDSLRYYYAK / GKNNRFA / SSRDSSGFQVF showed 4.61, 5.78, 4.37 (controls 2 of 9).
Variant AGDSLRYYYAN / GKNCRPS / SSRDSKGFQVF showed 2.17, 2.62, 2.44 (controls 4 of 9).
Variant EGDSLRYYYAN / GKNNRPS / WSRDSSGFIVF showed 3.66, 4.52, nd (controls 1 of 9).
Variant ECISLRYYYAN / TKNNRPS / SSRDSSGFQVF showed 5.16, nd, 3.61 (controls 3 of 9).
Variant EGDSLRYYYAN / GKNNRNS / WSRDSSGFRVF showed 3.87, nd, nd (controls 0 of 9).
Variant ECDSLRYYYAN / GKNNRPS / SSRDSSGFIDF showed 3.46, 3.09, 2.26 (controls 2 of 9).
Variant EYDSFRYYYAN / GKNNRPS / SSRDSSGFQVF showed 3.94, 4.22, 3.28 (controls 4 of 9).
Variant EGDSLRYQYAN / GKNNRPS / SSRDSEGLQVF showed 2.16, 2.16, 1.67 (controls 3 of 9).
Variant EGDSLRYAYAN / GKNNHPS / SSRDSCGFQVF showed 2.72, 3.25, nd (controls 2 of 9).
Variant EGDSLRYYYAN / GKNNRPS / SWTDSSGFQVF showed nd, 3.08, 4.44 (controls 2 of 9).

Empty control strains, which show no peptide, gave a signal in 28% of pairings with library AAYL52; the median was 3.91 and 95% of these signals were weaker than 2.90. No background was subtracted. For each scFv, signals with the empty controls are counted beside the result. Parent in this assay: reference entry 2.31, copy in this library 2.25.

From the AlphaSeq antibody data of Engelhart et al. 2022 (doi:10.1038/s41597-022-01779-4), copy in the FLAb collection.